ChEMBL document CHEMBL3779880, “In silico to in vitro screening of hydroxypyridinones as acetylcholinesterase inhibitors” (Bioorg Med Chem Lett, 2016)

Target: Acetylcholinesterase (Electrophorus electricus, UniProt O42275)
Assay: Inhibition of electric eel AChE preincubated for 5 mins followed by addition of acetylthiocholine iodide measured after 2 mins by Ellman's method

Cc1c(OC(=O)N(C)C)c(=O)ccn1-c1ccccc1 was tested, and the IC50 was 48.8 µM.
